The conditions of data set [1]: compared with the known hemifumarate salt.
The conditions of data set [2]: result in words, conditions not given.

Turning to “Quetiapine Oxalate [oxalate salt of quetiapine]”, in data set [1], the solubility in water result was “improved solubility in water”. In addition, the stability result in data set [2] is “stable”.

The values are drawn from patent US20070072840A1, “POLYMORPHIC FORMS OF QUETIAPINE” (priority 2005, published 2007).
